Here are results for 17 compounds from patent publication US8178552B2, “7-Azaindole derivatives and their use in the inhibition of c-Jun N-terminal kinase” (Eisai R&D Management Co., Ltd., priority 2008, dated 2012).

By UniProt entry, the sequences of proteins in these tests, tags left out.
UniProt P45984, whole entry: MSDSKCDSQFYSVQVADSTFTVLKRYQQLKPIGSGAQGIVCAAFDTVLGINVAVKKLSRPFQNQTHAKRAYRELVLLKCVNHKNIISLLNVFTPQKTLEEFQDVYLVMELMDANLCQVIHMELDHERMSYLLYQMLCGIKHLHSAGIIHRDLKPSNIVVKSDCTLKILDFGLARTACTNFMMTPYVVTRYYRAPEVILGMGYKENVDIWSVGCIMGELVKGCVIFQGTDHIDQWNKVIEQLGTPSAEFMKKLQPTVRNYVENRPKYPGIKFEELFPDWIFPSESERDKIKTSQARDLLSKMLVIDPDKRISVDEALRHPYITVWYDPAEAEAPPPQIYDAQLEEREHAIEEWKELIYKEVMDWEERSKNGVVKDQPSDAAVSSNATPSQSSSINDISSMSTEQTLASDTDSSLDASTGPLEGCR
UniProt P45983, whole entry: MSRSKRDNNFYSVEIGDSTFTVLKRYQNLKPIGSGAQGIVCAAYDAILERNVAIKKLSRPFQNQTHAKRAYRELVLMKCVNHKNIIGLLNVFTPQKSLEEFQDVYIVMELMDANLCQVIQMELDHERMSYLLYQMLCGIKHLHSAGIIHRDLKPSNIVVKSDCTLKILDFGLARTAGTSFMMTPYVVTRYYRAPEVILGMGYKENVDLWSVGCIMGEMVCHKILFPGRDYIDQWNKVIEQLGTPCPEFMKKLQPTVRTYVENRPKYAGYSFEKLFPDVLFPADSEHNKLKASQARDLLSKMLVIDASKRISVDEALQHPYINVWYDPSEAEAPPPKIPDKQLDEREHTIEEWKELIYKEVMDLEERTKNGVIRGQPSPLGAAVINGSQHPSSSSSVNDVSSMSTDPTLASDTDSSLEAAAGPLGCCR

Assay [1] deals with JNK2 (Homo sapiens, UniProt P45984). Nature of the assay: JNK2 SPA assay. The assay is classed as biochemical. Conditions: read-out: JNK2 IC50; 3.33 μM ATP, GST-c-Jun substrate.
The target in assay [2] is JNK1 (Homo sapiens, UniProt P45983). As to the kind of experiment: JNK1 SPA assay. The assay is classed as biochemical. Conditions: read-out: JNK1 IC50; 2 μM ATP, GST-c-Jun substrate.
The subject of assay [3] is panel of 100 kinases. Conditions: calculated from remaining activity at 1 micromolar compound, 10 micromolar ATP, 0 = non-selective, 1 = perfect selectivity.

Consider `Cn1cc(-c2c[nH]c3ncc([C@H]4CC[C@H](N5CCCC5)CC4)cc23)cn1` [Compound I-24, 3-(1-methyl-1H-pyrazol-4-yl)-5-((1r,4r)-4-(pyrrolidin-1-yl)cyclohexyl)-1H-pyrrolo[2,3-b]pyridine], for which the half-maximal inhibitory concentration (IC50) (commonly the midpoint of a concentration-inhibition curve) was determined as 562 nM in assay [1] and 195 nM in assay [2].

Consider `CN1CCN([C@H]2CC[C@@H](c3cnc4[nH]cc(-c5cnn(C)c5)c4c3)CC2)CC1` [Compound I-26, 3-(1-methyl-1H-pyrazol-4-yl)-5-((1s,4s)-4-(4-methylpiperazin-1-yl)cyclohexyl)-1H-pyrrolo[2,3-b]pyridine], for which the “Gini coefficient, compounds (I), non-aromatic C(5) group” value in assay [3] was 0.6727. The IC50 in assay [1] amounted to 617 nM; in assay [2] it was 302 nM.

Regarding `CN1CCCN([C@H]2CC[C@@H](c3cnc4[nH]cc(-c5cnn(C)c5)c4c3)CC2)CC1` [Compound I-38, 5-((1s,4s)-4-(4-methyl-1,4-diazepan-1-yl)cyclohexyl)-3-(1-methyl-1H-pyrazol-4-yl)-1H-pyrrolo[2,3-b]pyridine], the 50% inhibitory concentration (IC50) in assay [1] worked out at 158 nM; in assay [2], 182 nM.

With `Cn1cc(-c2c[nH]c3ncc([C@H]4CC[C@@H](N5CCOCC5)CC4)cc23)cn1` [Compound I-7, 4-((1s,4s)-4-(3-(1-methyl-1H-pyrazol-4-yl)-1H-pyrrolo[2,3-b]pyridin-5-yl)cyclohexyl)morpholine], the “Gini coefficient, compounds (I), non-aromatic C(5) group” value in assay [3] is 0.7006. Besides, the IC50 worked out at 162 nM in assay [1] and 98 nM in assay [2].

As for `CN1CCCN([C@H]2CC[C@H](c3cnc4[nH]cc(-c5cnn(C)c5)c4c3)CC2)CC1` [Compound I-37, 5-((1r,4r)-4-(4-methyl-1,4-diazepan-1-yl)cyclohexyl)-3-(1-methyl-1H-pyrazol-4-yl)-1H-pyrrolo[2,3-b]pyridine], the results for the 50% inhibitory concentration (IC50) in assay [1] and in assay [2] were 178 nM and 186 nM, respectively.

As for `Cn1cc(-c2c[nH]c3ncc([C@H]4CC[C@H](N5CCOCC5)CC4)cc23)cn1` [Compound I-6, 4-((1r,4r)-4-(3-(1-methyl-1H-pyrazol-4-yl)-1H-pyrrolo[2,3-b]pyridin-5-yl)cyclohexyl)morpholine], the “Gini coefficient, compounds (I), non-aromatic C(5) group” value in assay [3] is listed as 0.7173.

For the compound `Cn1cc(-c2c[nH]c3ncc([C@H]4CC[C@H](N5CCCOCC5)CC4)cc23)cn1` [Compound I-40, 4-((1r,4r)-4-(3-(1-methyl-1H-pyrazol-4-yl)-1H-pyrrolo[2,3-b]pyridin-5-yl)cyclohexyl)-1,4-oxazepane], the “Gini coefficient, compounds (I), non-aromatic C(5) group” value in assay [3] is recorded as 0.7684.

Take `Cn1cc(-c2c[nH]c3ncc([C@H]4CC[C@@H](N(C)C)CC4)cc23)cn1` [Compound I-72, (1s,4s)-N,N-dimethyl-4-(3-(1-methyl-1H-pyrazol-4-yl)-1H-pyrrolo[2,3-b]pyridin-5-yl)cyclohexanamine]: the IC50 in assay [1] was determined as 955 nM; in assay [2], 417 nM.

As to `Cn1cc(-c2c[nH]c3ncc([C@H]4CC[C@@H](N5CCCC5)CC4)cc23)cn1` [Compound I-23, 3-(1-methyl-1H-pyrazol-4-yl)-5-((1s,4s)-4-(pyrrolidin-1-yl)cyclohexyl)-1H-pyrrolo[2,3-b]pyridine], the IC50 in assay [1] was determined as 1290 nM; in assay [2], 646 nM.

`CC(C)N1CCN([C@H]2CC[C@H](c3cnc4[nH]cc(-c5cnn(C)c5)c4c3)CC2)CC1` [Compound I-43, 5-((1r,4r)-4-(4-isopropylpiperazin-1-yl)cyclohexyl)-3-(1-methyl-1H-pyrazol-4-yl)-1H-pyrrolo[2,3-b]pyridine]: the IC50 was found to be 214 nM in assay [1] and 100 nM in assay [2].

In the case of `Cn1cc(-c2c[nH]c3ncc([C@H]4CC[C@@H](N5CCCOCC5)CC4)cc23)cn1` [Compound I-39, 4-((1s,4s)-4-(3-(1-methyl-1H-pyrazol-4-yl)-1H-pyrrolo[2,3-b]pyridin-5-yl)cyclohexyl)-1,4-oxazepane], in assay [3], the “Gini coefficient, compounds (I), non-aromatic C(5) group” value is 0.7661. Besides, the values for the IC50 in assay [1] and in assay [2] were 562 nM and 316 nM, respectively.

For `Cn1cc(-c2c[nH]c3ncc(C4=CCCC4)cc23)cn1` [Compound I-10, 5-cyclopentenyl-3-(1-methyl-1H-pyrazol-4-yl)-1H-pyrrolo[2,3-b]pyridine], the figures for the IC50 in assay [1] and in assay [2] were 65 nM and 31 nM, respectively.

In the case of `Cn1cc(-c2c[nH]c3ncc(C4CCCCC4)cc23)cn1` [Compound I-16, 5-cyclohexyl-3-(1-methyl-1H-pyrazol-4-yl)-1H-pyrrolo[2,3-b]pyridine], the “Gini coefficient, compounds (I), non-aromatic C(5) group” value in assay [3] is given as 0.5745. For the same compound, the values for the IC50 in assay [1] and in assay [2] were 135 nM and 74 nM, respectively.

For the compound `Cn1cc(-c2c[nH]c3ncc([C@H]4CC[C@H](N(C)C)CC4)cc23)cn1` [Compound I-71, (1r,4r)-N,N-dimethyl-4-(3-(1-methyl-1H-pyrazol-4-yl)-1H-pyrrolo[2,3-b]pyridin-5-yl)cyclohexanamine], the IC50 came out at 603 nM in assay [1] and 170 nM in assay [2].

`Cn1cc(-c2c[nH]c3ncc([C@H]4CC[C@@H](N5CCC(F)(F)C5)CC4)cc23)cn1` [Compound I-48, 5-((1s,4s)-4-(3,3-difluoropyrrolidin-1-yl)cyclohexyl)-3-(1-methyl-1H-pyrazol-4-yl)-1H-pyrrolo[2,3-b]pyridine]: the IC50 is 339 nM in assay [1] and 170 nM in assay [2].

In the case of `CC(C)N1CCN([C@H]2CC[C@@H](c3cnc4[nH]cc(-c5cnn(C)c5)c4c3)CC2)CC1` [Compound I-44, 5-((1s,4s)-4-(4-isopropylpiperazin-1-yl)cyclohexyl)-3-(1-methyl-1H-pyrazol-4-yl)-1H-pyrrolo[2,3-b]pyridine], the IC50 in assay [1] is 347 nM; in assay [2], 132 nM.

Turning to `CCNC1CCC(c2cnc3[nH]cc(-c4cnn(C)c4)c3c2)CC1` (stereo not drawn) [Compound I-55, Ethyl-{4-[3-(1-methyl-1H-pyrazol-4-yl)-1H-pyrrolo[2,3-b]pyridin-5-yl]-cyclohexyl}-amine], the values for the IC50 in assay [1] and in assay [2] were 501 nM and 240 nM, respectively.
